In ChEMBL document CHEMBL5038571, “Design and Synthesis of EZH2-Based PROTACs to Degrade the PRC2 Complex for Targeting the Noncatalytic Activity of EZH2” (J Med Chem, 2021):

Species: Homo sapiens
Assay: Selectivity index, ratio of IC50 for inhibition of recombinant full length human N-terminal FLAG-tagged EZH1 in PRC2 complex expressed in baculovirus system to IC50 for inhibition of N-terminal His-tagged EZH2 in human PCR2 complex (2 to end residues) expressed in Sf9 cells

CCN(c1cc(-c2ccc(CN3CCN(CCCCCCCOc4cccc5c4C(=O)N(C4CCC(=O)NC4=O)C5=O)CC3)cc2)cc(C(=O)NCc2c(C)cc(C)[nH]c2=O)c1C)C1CCOCC1 (stereo unspecified)
Ratio IC50: > 66
